Patent publication US9670203B2 (BeiGene, LTD., priority 2013, dated 2017)

Sequences of proteins named here, by UniProt entry; tags and fusion partners are left off. A change or cut given only in a name is not applied to a line headed by its entry.
UniProt P15056, whole entry V600E: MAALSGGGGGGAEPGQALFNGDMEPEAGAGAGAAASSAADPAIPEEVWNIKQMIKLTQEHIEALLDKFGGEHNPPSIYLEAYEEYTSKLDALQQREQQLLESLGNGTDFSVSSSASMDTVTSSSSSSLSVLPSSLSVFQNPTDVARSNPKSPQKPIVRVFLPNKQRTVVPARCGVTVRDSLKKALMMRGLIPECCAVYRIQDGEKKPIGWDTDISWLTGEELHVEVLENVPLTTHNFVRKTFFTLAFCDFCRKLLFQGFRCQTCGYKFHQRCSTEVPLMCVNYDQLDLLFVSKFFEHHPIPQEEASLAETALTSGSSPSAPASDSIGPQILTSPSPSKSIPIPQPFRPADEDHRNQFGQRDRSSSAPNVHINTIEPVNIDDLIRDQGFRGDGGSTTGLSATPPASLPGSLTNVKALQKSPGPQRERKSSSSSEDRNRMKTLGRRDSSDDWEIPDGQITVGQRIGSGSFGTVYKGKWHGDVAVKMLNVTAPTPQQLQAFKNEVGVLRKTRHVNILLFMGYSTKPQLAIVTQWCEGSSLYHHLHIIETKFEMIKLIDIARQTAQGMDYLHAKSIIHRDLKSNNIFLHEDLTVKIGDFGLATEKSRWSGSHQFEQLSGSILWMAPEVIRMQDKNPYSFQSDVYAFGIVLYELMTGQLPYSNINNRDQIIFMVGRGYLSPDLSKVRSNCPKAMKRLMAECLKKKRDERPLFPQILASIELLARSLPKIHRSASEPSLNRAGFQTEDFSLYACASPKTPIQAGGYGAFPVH
UniProt P15056, whole entry: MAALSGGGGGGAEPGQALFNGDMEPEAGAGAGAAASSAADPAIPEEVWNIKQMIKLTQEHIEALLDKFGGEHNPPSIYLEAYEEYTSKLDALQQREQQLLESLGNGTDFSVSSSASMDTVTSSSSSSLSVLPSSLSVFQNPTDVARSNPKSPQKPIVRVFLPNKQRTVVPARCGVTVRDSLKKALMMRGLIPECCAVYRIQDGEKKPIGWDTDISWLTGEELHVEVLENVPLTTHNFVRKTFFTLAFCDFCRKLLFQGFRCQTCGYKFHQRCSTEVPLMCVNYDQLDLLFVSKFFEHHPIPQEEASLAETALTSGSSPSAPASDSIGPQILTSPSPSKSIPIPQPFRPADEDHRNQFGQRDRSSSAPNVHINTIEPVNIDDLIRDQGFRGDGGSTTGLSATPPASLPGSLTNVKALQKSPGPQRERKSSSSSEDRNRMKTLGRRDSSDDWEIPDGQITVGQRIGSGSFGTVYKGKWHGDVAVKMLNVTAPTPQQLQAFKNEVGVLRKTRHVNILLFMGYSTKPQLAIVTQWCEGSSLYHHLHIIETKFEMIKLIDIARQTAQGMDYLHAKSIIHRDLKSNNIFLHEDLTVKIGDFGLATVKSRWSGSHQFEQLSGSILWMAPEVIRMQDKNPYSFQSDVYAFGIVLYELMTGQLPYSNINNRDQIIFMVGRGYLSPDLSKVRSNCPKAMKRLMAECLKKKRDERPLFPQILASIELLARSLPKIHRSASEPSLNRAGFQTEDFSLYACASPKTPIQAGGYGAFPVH
UniProt P04049, whole entry Y340D/Y341D: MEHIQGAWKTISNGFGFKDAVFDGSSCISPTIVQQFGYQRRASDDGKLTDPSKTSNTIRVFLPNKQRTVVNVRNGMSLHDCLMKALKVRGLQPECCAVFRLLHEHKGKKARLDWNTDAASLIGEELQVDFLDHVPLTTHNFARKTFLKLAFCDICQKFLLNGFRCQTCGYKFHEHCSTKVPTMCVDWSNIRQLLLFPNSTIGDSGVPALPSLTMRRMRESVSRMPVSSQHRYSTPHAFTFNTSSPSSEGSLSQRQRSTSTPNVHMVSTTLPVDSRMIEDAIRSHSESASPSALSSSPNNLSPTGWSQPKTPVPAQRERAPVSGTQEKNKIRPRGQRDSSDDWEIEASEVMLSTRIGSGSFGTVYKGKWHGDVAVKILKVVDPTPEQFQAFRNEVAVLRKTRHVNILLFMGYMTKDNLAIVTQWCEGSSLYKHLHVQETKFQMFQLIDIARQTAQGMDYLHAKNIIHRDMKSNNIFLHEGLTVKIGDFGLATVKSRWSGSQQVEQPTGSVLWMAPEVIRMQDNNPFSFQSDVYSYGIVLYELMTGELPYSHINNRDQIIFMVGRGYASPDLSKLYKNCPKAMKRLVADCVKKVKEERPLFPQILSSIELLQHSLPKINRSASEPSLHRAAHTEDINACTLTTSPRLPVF

Assays:
A375 = test: Anti-proliferative activity EC50 assay (CellTiter-Glo) in A375; settings: read-out: Cell Proliferation EC50 (nM) A375; 3-day exposure
B-Raf (V600E) = B-Raf (V600E) (Homo sapiens (Human), UniProt P15056, V600E); test: Raf IC50 assay, time-resolved fluorescence energy transfer, B-Raf (V600E); type: biochemical; settings: read-out: IC50 (nM) B_Raf^V600E; 0.1 mM ATP
C-Raf (Y340D/Y341D) = C-Raf (Y340D/Y341D) (Homo sapiens (Human), UniProt P04049, Y340D/Y341D); test: Raf IC50 assay, time-resolved fluorescence energy transfer, C-Raf (Y340D/Y341D); type: biochemical; settings: read-out: IC50 (nM) C-Raf; 0.1 mM ATP
wild type B-Raf = wild type B-Raf (Homo sapiens (Human), UniProt P15056); test: WT B-Raf IC50 assay, time-resolved fluorescence energy transfer; type: biochemical; settings: read-out: IC50 (nM) B-Raf^WT Km ATP; Km ATP (2.9 μM ATP)

SMILES	EC50 (A375)	IC50 (B-Raf (V600E))	IC50 (C-Raf (Y340D/Y341D))	IC50 (wild type B-Raf)
O=C1CCc2c(Oc3ccc4c(c3)[C@H]3[C@H](NC(=O)NCc5ccccc5F)[C@H]3O4)ccnc2N1	840 nM	0.71 nM	–	–
Cc1ccc(NC(=O)N[C@@H]2[C@H]3Oc4ccc(Oc5ccnc6c5CCC(=O)N6)cc4[C@@H]23)cc1C(F)(F)F	–	17 nM	1.4 nM	26 nM
O=C1CCc2c(Oc3ccc4c(c3)[C@H]3[C@H](NC(=O)NCc5ccccc5C(F)(F)F)[C@H]3O4)ccnc2N1	178 nM	1.7 nM	0.34 nM	2.2 nM
